# Apparent affinities of Ab-14 variants for a coronavirus HR2 peptide

Binding partner: SARS-CoV-2 spike HR2 peptide, sequence PDVDLGDISGINAS.

The variants keep the light chain, the linker and the frameworks of Ab-14 (scFv order VH, a 15-residue (Gly4Ser)3 linker, VL).
VH: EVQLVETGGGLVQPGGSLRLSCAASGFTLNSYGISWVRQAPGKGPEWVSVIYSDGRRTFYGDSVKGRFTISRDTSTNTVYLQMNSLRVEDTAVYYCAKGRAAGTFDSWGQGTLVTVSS
VL: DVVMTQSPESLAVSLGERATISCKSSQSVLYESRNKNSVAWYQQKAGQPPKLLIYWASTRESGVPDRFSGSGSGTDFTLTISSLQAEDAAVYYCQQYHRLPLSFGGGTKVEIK

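The parent was found by panning a naive human phage display library on the peptide. Library AAYL49 holds single substitutions and randomly drawn double and triple substitutions in the CDRs. In AlphaSeq, yeast of one mating type display the scFv and yeast of the other type display the target. Mating (16 h, 30 °C) was followed by selection of diploids and sequencing of their barcodes. Scores were corrected for input abundance and mapped to Kd with protein pairs of known affinity run in the same pool. The assay was run in three technical replicates.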

Sequences are complete VH domains. Numbers give log10(Kd / nM), so 0 is 1 nM and 3 is 1 µM. Smaller is tighter. A pair that was not seen in that replicate is written "n.d."; this usually means weak binding, but a binder can also be missed.

replicates, log10 nM	VH
n.d. / n.d. / n.d.	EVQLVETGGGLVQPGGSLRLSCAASGFTLNSYGISWVRQAPGKGPEWVSVIYSDGRRTFYRDPVKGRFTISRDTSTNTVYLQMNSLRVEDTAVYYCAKGRAAGTFSSWGQGTLVTVSS
6.00 / n.d. / n.d.	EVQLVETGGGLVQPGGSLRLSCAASGFTLNSYGKSWVRQAPGKGPEWVSDVYSDGRRTFYGDSVKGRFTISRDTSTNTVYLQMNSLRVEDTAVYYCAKGRAAGTFDSWGQGTLVTVSS
n.d. / 4.11 / 6.05	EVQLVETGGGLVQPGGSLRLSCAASGFTLNSYGISWVRQAPGKGPEWVSVINSDGRRTFYGDSVKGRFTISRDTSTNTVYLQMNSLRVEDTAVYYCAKPRAAGTHDSWGQGTLVTVSS
2.70 / 2.43 / 3.06	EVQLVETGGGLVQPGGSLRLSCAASDFELLSYGISWVRQAPGKGPEWVSVIYSDGRRTFYGDSVKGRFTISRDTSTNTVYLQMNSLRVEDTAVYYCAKGRAAGTFDSWGQGTLVTVSS
n.d. / n.d. / n.d.	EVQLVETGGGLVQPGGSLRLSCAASGFTLNSYGISWVRQAPGKGPEWVSVIYSDIRRTFYGDSVKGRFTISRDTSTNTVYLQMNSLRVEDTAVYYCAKGFAAGTFDMWGQGTLVTVSS
n.d. / 2.97 / n.d.	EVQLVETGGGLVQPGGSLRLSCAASGFTLNSYGISWVRQAPGKGPEWVSSIYSDGHRTFYGDSVKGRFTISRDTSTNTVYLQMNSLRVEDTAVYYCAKGRAAGTFRSWGQGTLVTVSS
4.21 / n.d. / 5.49	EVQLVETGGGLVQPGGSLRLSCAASGFTFSSYGISWVRQAPGKGPEWVSVIYSDVRRTFYGDSVKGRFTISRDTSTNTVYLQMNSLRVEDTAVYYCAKGRAAGTFDSWGQGTLVTVSS
n.d. / n.d. / n.d.	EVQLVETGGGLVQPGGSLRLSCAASGFTLNIYGISWVRQAPGKGPEWVSGIYSDGRRTFYGDSVKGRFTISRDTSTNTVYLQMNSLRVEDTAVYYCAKGAAAGTFDSWGQGTLVTVSS
n.d. / 4.06 / n.d.	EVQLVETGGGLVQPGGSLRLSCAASGFTLNSYGISWVRQAPGKGPEWVSMIYSDGRRTSYGDSVKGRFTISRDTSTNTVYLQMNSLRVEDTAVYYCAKGRAAGHFDSWGQGTLVTVSS
4.34 / n.d. / n.d.	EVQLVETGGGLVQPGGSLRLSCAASAFTLNSCGISWVRQAPGKGPEWVSVIYSDGRRTFYGDSVKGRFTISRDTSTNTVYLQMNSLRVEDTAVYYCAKGRAAGTFDSWGQGTLVTVSS
n.d. / n.d. / n.d.	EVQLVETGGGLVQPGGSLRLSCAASGFTLNSYGISWVRQAPGKGPEWVSVLYSDGRRMFYGDSVKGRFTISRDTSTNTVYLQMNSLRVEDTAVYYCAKGRATGTFDSWGQGTLVTVSS
0.91 / 1.02 / 1.33	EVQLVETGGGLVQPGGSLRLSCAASGSVLNSYGISWVRQAPGKGPEWVSVIYSDGRRTFYGDSVKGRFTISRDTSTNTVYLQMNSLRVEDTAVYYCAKGRAAGTFDSWGQGTLVTVSS
n.d. / n.d. / n.d.	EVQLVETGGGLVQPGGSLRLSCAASGFTPNSYGISWVRQAPGKGPEWVSVIYSRGRRSFYGDSVKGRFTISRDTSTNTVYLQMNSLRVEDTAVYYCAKGRAAGTFDSWGQGTLVTVSS
4.42 / n.d. / 4.00	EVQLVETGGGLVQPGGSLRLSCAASGFTLNSYGISWVRQAPGKGPEWVSVIQSDGRRTFHGDSTKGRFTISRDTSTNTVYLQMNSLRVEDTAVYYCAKGRAAGTFDSWGQGTLVTVSS
n.d. / 3.72 / n.d.	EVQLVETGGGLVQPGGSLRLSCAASGFTLNSYGISWVRQAPGKGPEWVSVIYSDGRRTKYGKSVKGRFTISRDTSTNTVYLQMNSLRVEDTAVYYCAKGRADGTFDSWGQGTLVTVSS
4.37 / n.d. / 4.60	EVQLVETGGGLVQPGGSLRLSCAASGFTLWSYMISWVRQAPGKGPEWVSVIYSDGRRTFYGDSVKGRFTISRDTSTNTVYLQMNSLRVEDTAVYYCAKNRAAGTFDSWGQGTLVTVSS
n.d. / n.d. / n.d.	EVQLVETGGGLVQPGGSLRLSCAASGFTLWSYGISWVRQAPGKGPEWVSVCYSDGRRTFDGDSVKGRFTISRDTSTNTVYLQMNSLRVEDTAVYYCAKGRAAGTFDSWGQGTLVTVSS

Repeated from above, the 2 best binders with a signal in all replicates:

VH,"replicates, log10 nM"
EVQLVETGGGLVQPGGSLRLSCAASGSVLNSYGISWVRQAPGKGPEWVSVIYSDGRRTFYGDSVKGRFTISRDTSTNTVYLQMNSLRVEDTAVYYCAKGRAAGTFDSWGQGTLVTVSS,0.91 / 1.02 / 1.33
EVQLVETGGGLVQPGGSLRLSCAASDFELLSYGISWVRQAPGKGPEWVSVIYSDGRRTFYGDSVKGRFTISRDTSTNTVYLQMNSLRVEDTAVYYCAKGRAAGTFDSWGQGTLVTVSS,2.70 / 2.43 / 3.06

As a blank, each scFv also met three strains without target: over library AAYL49, 15% of these pairings were detected, typically at 4.06 and seldom below 2.83.

Reference: Engelhart et al. 2022, doi:10.1038/s41597-022-01779-4. File: FLAb, binding data.